# Laboratory results from PubChem BioAssay AID1423 (NMMLSC, 2008).
# Chains of the proteins cited; added tags and fusions are not shown.
# UniProt P09471, whole entry, looked up: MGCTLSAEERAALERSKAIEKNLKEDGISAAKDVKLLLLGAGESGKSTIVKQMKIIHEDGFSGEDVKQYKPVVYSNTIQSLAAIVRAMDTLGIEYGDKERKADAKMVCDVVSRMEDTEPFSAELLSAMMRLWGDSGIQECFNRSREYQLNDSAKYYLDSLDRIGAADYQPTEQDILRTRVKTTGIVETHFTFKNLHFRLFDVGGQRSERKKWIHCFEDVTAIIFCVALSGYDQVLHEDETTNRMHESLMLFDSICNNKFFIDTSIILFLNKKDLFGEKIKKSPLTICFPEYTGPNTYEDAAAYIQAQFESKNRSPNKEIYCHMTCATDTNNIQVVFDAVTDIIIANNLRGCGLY
# Several values for one entry are separate records, joined by “and”; a condition that tells them apart may be missing. Identical values can stand only once. Only a part is listed here, and it is no random draw. Activity calls are given as the source filed them. Cut-off read from the data, not from the text of the source: active = response below about 60% or above about 140%; inactive = in between.
# Molecular target: Guanine nucleotide-binding protein G(o) subunit alpha (Homo sapiens) (UniProt P09471)
# Assay: RGS8-Galphao binding modulators, primary screen, biochemical, multiplexed bead flow cytometry (AID 1423);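 note: Galphao activated as the GDP aluminium fluoride complex binding bead-coupled RGS8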
# Details: at 10 µM, actives lie on both sides
row,SMILES,response (percent of control binding)
1,NC(=O)Nc1ccc([As](=O)(O)O)cc1,inactive: 100%
2,CN(C(=O)Cc1ccccc1)[C@@H]1CC[C@]2(CCCO2)C[C@H]1N1CCCC1,inactive: 91.6%
3,CCOP1(=S)c2c(C)nn(CCC#N)c2N=C(c2ccc(F)cc2)N1C (stereo unspecified),inactive: 101%
4,O=[N+]([O-])c1ccc2c(c1)nnn2O,inactive: 111%
5,CCOP1(=S)c2c(C)nn(CCC#N)c2N=C(c2ccccc2F)N1C (stereo unspecified),inactive: 103%
6,O=P(Nc1nccs1)(c1ccccc1)c1nc2ccccc2s1 (stereo unspecified),inactive: 102%
7,O=P(Nc1nccs1)(Oc1ccccc1)Oc1ccccc1,inactive: 94%
8,CS(=O)(=O)c1cc([N+](=O)[O-])c2no[n+]([O-])c2c1,inactive: 66%
9,Nc1ccccc1[As](=O)(O)c1ccccc1,inactive: 103%
10,O=C(O)COc1ccc([As](=O)(O)O)cc1[N+](=O)[O-],inactive: 100%
11,Nc1cccc2c([As](=O)(O)O)cccc12,active: 49.9%
12,Cc1ccc(NCCc2c([N+](=O)[O-])cc([N+](=O)[O-])cc2[N+](=O)[O-])cc1,inactive: 94.8%
13,CCCOP(=S)(Nc1nc(N)cc(=O)[nH]1)OCCC,inactive: 97.7%
14,COc1cc(C2NCCC3(OCCO3)C2(C)C)cc(OC)c1OC (stereo unspecified),inactive: 106%
15,CCOP(=O)(Nc1cccc2ccccc12)OCC,inactive: 101%
16,O=C(OC1CN2CCC1CC2)c1ccc(Cl)cc1 (stereo unspecified),inactive: 99%
17,COc1cc(C(=O)NCC2(N3CCOCC3)CCCCC2)cc(Cl)c1OC(C)C,inactive: 104%
18,O=[As](O)(O)c1cccnc1,inactive: 104%
19,O=[As](O)(c1cccc(O)c1)c1cccc(O)c1,inactive: 101%
20,Cc1cccc(OCC(=O)OC2CN3CCC2CC3)c1 (stereo unspecified),inactive: 100%
21,CC(C)/C=N\N=C(\N)N[N+](=O)[O-],inactive: 98.5%
22,CN(C(=O)Cc1ccc(Cl)c(Cl)c1)[C@@H]1CCCC[C@H]1N1CCCC1,inactive: 103%

row,SMILES,response (percent of control binding)
1,O=[As](O)(c1ccccc1Br)c1ccccc1Br,inactive: 103%
2,O=P1(Nc2ccccn2)COc2ccccc2OC1,inactive: 101%
3,CCOP(=O)(Nc1ccc(C)cn1)OCC,inactive: 97%
4,Clc1n[nH]nc1-c1nn[nH][15n]1,inactive: 97.9%
5,CC(C)(C)C(=O)NC(Sc1ncccn1)C(Cl)(Cl)Cl (stereo unspecified),inactive: 101%
6,O=P1(Nc2ncccn2)COc2ccccc2OC1,inactive: 101%
7,Nc1cccc([As](=O)(O)c2ccccc2)c1,inactive: 102%
8,O=P1(Nc2ccc(Br)cn2)COc2ccccc2OC1,inactive: 101%
9,O=[As](O)(c1cccs1)c1cccs1,inactive: 101%
10,Cc1ccc(OCC(=O)OC2CN3CCC2CC3)cc1 (stereo unspecified),inactive: 95.6%
11,Cc1nn(-c2ccccc2)c2c1P(=O)(N1CCOCC1)N(C)C(c1ccccc1)=N2 (stereo unspecified),inactive: 104%
12,CC1CCC(C(C)C)C(OP(=O)(Nc2ccccn2)c2ccccc2)C1 (stereo unspecified),inactive: 94.9%
13,CN(C)C1(CNC(=O)c2ccc(S(C)(=O)=O)cc2)CCCCC1,inactive: 104%
14,O=C(/C=C/c1ccccc1)OC1CN2CCC1CC2 (stereo unspecified),inactive: 100%
15,CCOC(=O)Nc1cccc([As](=O)(O)O)c1,inactive: 103%
16,O=P(Nc1ccccn1)(c1cccc2ccccc12)c1cccc2ccccc12,inactive: 100%
17,Cc1cc(SC(NC=O)C(Cl)(Cl)Cl)ncn1 (stereo unspecified),inactive: 100%
18,O=[N+]([O-])c1ccc(Nc2ccc(Oc3ccc([N+](=O)[O-])cc3[N+](=O)[O-])cc2)c([N+](=O)[O-])c1,inactive: 97.2%
19,CCOC(=O)Nc1ccc([As](=O)(O)O)c(O)c1,inactive: 98.8%
20,Cc1cc(SC(NC(=O)c2ccccc2)C(Cl)(Cl)Cl)nc(C(C)C)n1 (stereo unspecified),inactive: 97.9%
21,CCOC(=O)c1ccc(NC(=O)C(C)(CCl)SC)cc1 (stereo unspecified),inactive: 101%
22,CCC(C)N(CC(C)C)C(=S)SC(NC(C)=O)C(Cl)(Cl)Cl (stereo unspecified),inactive: 103%

row,SMILES,response (percent of control binding)
1,COP1(=S)c2c(C)nn(CCC#N)c2N=C(c2ccc(F)cc2)N1C (stereo unspecified),inactive: 100%
2,O=C(COc1ccccc1)OC1CN2CCC1CC2 (stereo unspecified),inactive: 97.5%
3,COc1ccc(N/C(=N/P(=O)(N2CCOCC2)N2CCOCC2)N2CCOCC2)cc1,inactive: 103%
4,Cc1c2c(nc3ccccc13)SC(C(Cl)Cl)C2 (stereo unspecified),inactive: 92.6%
5,O=C(OC1CN2CCC1CC2)C12CC3CC(CC(C3)C1)C2 (stereo unspecified),inactive: 103%
6,Cc1cc(=O)[nH]c(N[N+](=O)[O-])n1,inactive: 107%
7,COc1ccc2nc(NP(=O)(c3ccccc3)c3ccccc3)sc2c1,inactive: 104%
8,COc1cc(I)ccc1[As](=O)(O)O,inactive: 103%
9,ClCCSc1nnc(-c2cccnc2)o1,inactive: 103%
10,CC(C)c1ccc(OP(=O)(Nc2ccccn2)Oc2ccccc2F)cc1 (stereo unspecified),inactive: 83.5%
11,CCN(CC)C(=S)SC(NC=O)C(Cl)(Cl)Cl (stereo unspecified),inactive: 102%
12,CC(C)NC(=O)NP(=O)(Oc1ccccc1)Oc1ccccc1,inactive: 96.2%
13,O=[N+]([O-])c1cc([N+](=O)[O-])c(-c2ccn[nH]2)s1,inactive: 99.2%
14,O=[As](O)(c1ccc(O)cc1)c1ccccc1O,inactive: 99.8%
15,C[As](=O)(O)c1cccc(C(=O)O)c1,inactive: 91%
16,Cc1ccc(OP(=O)(Nc2ccc([N+](=O)[O-])cn2)Oc2ccc(C)cc2)cc1,inactive: 104%
17,Cc1ccc2nc3c(c(C)c2c1)CC(C(Cl)Cl)S3 (stereo unspecified),inactive: 106%
18,Nc1cccc2ccc([As](=O)(O)O)cc12,inactive: 97.2%
19,CCN(N=Nc1nonc1N)c1nonc1N,inactive: 99%
20,O=P(Nc1nc2ccc(Cl)cc2s1)(c1ccccc1)c1ccccc1,inactive: 97.6%
21,O=C(O)c1ccccc1[As](=O)(O)O,inactive: 100%
22,CC(=O)Nc1ccc([As](=O)(O)O)cc1,inactive: 97.3%

row,SMILES,response (percent of control binding)
1,CCOP(=O)(Nc1ccccc1)OCC,inactive: 104% and inactive: 103%
2,Cc1cc(SC(NC(=O)c2ccc(F)cc2)C(Cl)(Cl)Cl)ncn1 (stereo unspecified),inactive: 99.3%
3,Cc1ccc(NP(=O)(Oc2ccccc2F)Oc2ccccc2F)nc1,inactive: 102%
4,Oc1ccccc1CNc1ccccn1,inactive: 103%
5,Cc1c2non([O-])c-2c(C)[n+](=O)[n+]1[O-],inactive: 87.6%
6,O=C(NC(Sc1ccncn1)C(Cl)(Cl)Cl)c1ccccc1 (stereo unspecified),inactive: 93.4%
7,CC(C)CC(=O)NC(Sc1ccc(Cl)cc1)C(Cl)(Cl)Cl (stereo unspecified),inactive: 97.5%
8,Nc1cc(N)c2nonc2c1[N+](=O)[O-],inactive: 102%
9,Cc1ccc(N/C(=N/P(=O)(N2CCOCC2)N2CCOCC2)N2CCOCC2)cc1,inactive: 105%
10,NC(=O)c1cc([N+](=O)[O-])cc([N+](=O)[O-])c1N,inactive: 101%
11,Clc1ccc(Cl)c(NC2=NCC(CBr)S2)c1 (stereo unspecified),inactive: 104%
12,CN1CCCC(OC(=O)C(c2ccccc2)c2ccccc2)C1 (stereo unspecified),inactive: 102%
13,COc1ccccc1OP(=O)(Nc1ccc(C)cn1)Oc1ccccc1OC,inactive: 103%
14,Cc1ccc(OP(=O)(Nc2nccs2)Oc2ccc(C)cc2)cc1,inactive: 101%
15,CCN(/C(=N/P(=O)(N1CCOCC1)N1CCOCC1)N1CCOCC1)c1ccc(OC)cc1,inactive: 102%
16,Nc1ccc([As](=O)(O)c2ccc(N)cc2)cc1,inactive: 101%
17,C[N+]1=C2C=CC=CC=C2SC12C([N+](=O)[O-])=CC([N+](=O)[O-])=C[C-]2[N+](=O)[O-] (stereo unspecified),inactive: 86%
18,CC1CCN(C(=O)Oc2c(Cl)cc(Cl)c3cccnc23)CC1,inactive: 101%
19,CC(C)=N/N=C(\N)N[N+](=O)[O-],inactive: 97.3%
20,CN(C)C(=O)OCCc1n(C)cc[n+]1C,inactive: 103%
21,COc1ccc(C2=NCC(CBr)S2)cc1 (stereo unspecified),inactive: 106%
22,Cc1ccc(NP(=O)(Oc2ccccc2)Oc2ccccc2)nc1,inactive: 104%

row,SMILES,response (percent of control binding)
1,CCc1nc2c(n1)c1c(non1O)c1c2no[n+]1[O-],inactive: 104%
2,O=[N+]([O-])c1cc([N+](=O)[O-])c(CCNc2ccccc2)c([N+](=O)[O-])c1,inactive: 100%
3,O=[N+]([O-])c1cccc2n[nH]nc12,inactive: 100%
4,CC(=O)N1C2C3N(C(C)=O)C1C1N(C(C)=O)C(C(N1C(C)=O)N3C(C)=O)N2C(C)=O,inactive: 102%
5,O=[N+]([O-])c1ncn(CCn2ncnc2[N+](=O)[O-])n1,inactive: 102%
6,CC(C)(C)C(=O)NC(Sc1ccncn1)C(Cl)(Cl)Cl (stereo unspecified),inactive: 99.2%
7,O=C(O)CNc1ccc([As](=O)(O)O)cc1,inactive: 115%
8,O=[N+]([O-])c1cccc(NC2=NCC(CBr)S2)c1 (stereo unspecified),inactive: 101%
9,O=C(Nc1cc([As](=O)(O)O)ccc1O)c1ccccc1,inactive: 105%
10,O=[As](O)(c1ccccc1)c1ccc(O)cc1,inactive: 89.8%
11,O=[N+]([O-])c1ncn(CCn2cnc([N+](=O)[O-])n2)n1,inactive: 98.1%
12,CC(=O)NC(SC(=S)N(C)C)C(Cl)(Cl)Cl (stereo unspecified),inactive: 103%
13,O=C(OC1CN2CCC1CC2)c1cccc(Cl)c1 (stereo unspecified),inactive: 100%
14,Nc1ccc([As](=O)(O)c2ccc([N+](=O)[O-])cc2)cc1,inactive: 101%
15,C(Cc1nn[nH]n1)Cc1nn[nH]n1,inactive: 103%
16,O=P(Nc1ccccn1)(c1ccc(Br)cc1)c1ccc(Br)cc1,inactive: 93.9%
17,O=P(Nc1nc2ccccc2s1)(c1ccccc1)c1ccccc1,inactive: 99.8%
18,C[C@H]1OP(=O)(Oc2ccccc2)[C@H](O)[C@H](O)[C@H]1N=[N+]=[N-] (stereo partly specified),inactive: 97.4%
